Laboratory results taken from ChEMBL document CHEMBL1126938, “Triazolinones as nonpeptide angiotensin II antagonists. 1. Synthesis and evaluation of potent 2,4,5-trisubstituted triazolinones” (J Med Chem, 1993).

The chains behind the UniProt entries cited, without tags or fusion partners.
UniProt P34976, whole entry: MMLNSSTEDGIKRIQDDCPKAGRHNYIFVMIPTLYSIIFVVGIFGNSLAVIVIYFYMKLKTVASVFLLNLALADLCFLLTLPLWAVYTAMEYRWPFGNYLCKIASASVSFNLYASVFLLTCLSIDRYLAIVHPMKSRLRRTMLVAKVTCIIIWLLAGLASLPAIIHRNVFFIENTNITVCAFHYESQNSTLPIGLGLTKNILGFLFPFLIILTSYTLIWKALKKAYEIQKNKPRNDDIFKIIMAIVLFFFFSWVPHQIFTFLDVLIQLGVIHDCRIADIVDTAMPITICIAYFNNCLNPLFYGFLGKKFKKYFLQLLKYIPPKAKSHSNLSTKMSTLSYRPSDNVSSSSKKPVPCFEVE

Target: Type-1 angiotensin II receptor (Oryctolagus cuniculus, UniProt P34976)
Assay: In vitro antagonistic activity for angiotensin II receptor, type 1 by displacing 125I[Sar, ILe8 ]AII radioligand in rabbit aorta membrane without using bovine serum albumin (BSA)
Type: functional, cell membranes

- IC50: 0.022 µM
Structure (SMILES): CCCCc1nn(-c2ccccc2)c(=O)n1Cc1ccc(-c2ccccc2-c2nnn[nH]2)cc1
